Screens (PubChem)
The list is not random: actives were taken first. Their share in the collection is about 0.67%.
ASM inhibitor = human S-ASM enzyme inhibition | P17405 | 340,000 tested, 0.006% active | AID 504937 | placental ASM, HMU-PC fluorogenic substrate, 60 min | Potency, µM (titrated, usually from 57.5 µM), for inactives: at the highest dose activity change, negative = inhibition, actives largely listed as inhibitors; active = well fitted inhibition curve with a large enough effect; inconclusive = small, poorly fitted or top-dose-only effect; inactive = no such curve, though single readings can be large or run the other way
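Fluorescence read-out (Ex 386 nm, Em 447 nm) after stopping the reaction at pH 10. Enzyme: ASM from human placenta; substrate HMU-PC0, 9 uM final; 60 min, 37 °C. Compound preincubation 10 min, ambient temperature.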
gsp antagonist = gsp mutant antagonism. gsp-mutant cells, cAMP HTRF, 30 min. Potency, µM (titrated, usually from 76.9 µM), for inactives: top-dose activity change, negative = inhibition, usual class: inhibitors. 340,000 tested, 0.4% active. AID 624288; calls by dose curve; cell line not stated here;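 note: intracellular cAMP measured with PDE inhibitor Ro 20-1724 present during compound exposure; % is set by controls: 0 for no effect and ±100 for the full control effect; nearly all actives have a fitted effect of over 65% in size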
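Cells in G418 medium, seeded 16-24 h, 37C; buffer exchange to DPBS + 1 mM CaCl2, 0.5 mM MgCl2, 0.05% BSA; cpds in DMSO + […] (300 uM stock), 30 min 37C; HTRF cAMP detection.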
Rango complex inh = Rango-importin beta binding inhibition; Q14974; Rango CFP/YFP FRET sensor + importin beta, 45 min; Potency, µM (highest dose often 92.2 µM), for inactives: at the highest dose inhibition of complex formation; 340,000 tested, 0.031% active;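 note: 0% = DMSO wells and 100% = buffer wells lacking importin beta; nearly all actives have a fitted effect of over 15% in size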
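FRET biosensor (snurportin 1 IBB flanked by EYFP and cerulean), 50 nM, with compound 5 min, then 0.125 microM importin beta in PBS, 1 mM DTT, 0.02% Tween-20, 0.1% BSA. CFP/YFP ratio read after 45 min at room temperature; pre-read flags interference.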
gsp ag = activates gsp, the McCune-Albright syndrome mutation; gsp mutant cells, cAMP HTRF, 30 min; Potency, µM (top dose mostly 76.9 µM), for the others: top-dose activation (cAMP increase), hits mostly activators; 340,000 tested, 0.13% active; AID 624287; active = well fitted activation curve with a large enough effect; inconclusive = small, poorly fitted or top-dose-only effect, or another doubt; inactive = no such curve, though single readings can be large or run the other way; cell line not stated here;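 note: phosphodiesterase inhibitor Ro 20-1724 added with compounds to block cAMP breakdown; nearly all actives have a fitted effect of over 60% in size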
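Cells in DMEM/10% FBS with G418 were pretreated with compounds in DMSO plus […] (300 uM stock) for 30 min at 37C. cAMP was measured by HTRF (cAMP-d2 plus anti-cAMP antibody-K) after 30 min at room temperature.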
Rango release inh = inhibition of RanGTP-driven Rango-importin beta dissociation; O95149+P62826; Biochemical FRET Rango-importin beta, RanGTP-induced dissociation; Potency, µM (top dose mostly 46.1 µM), without a hit: top-dose activity change, negative = inhibition; 340,000 tested, 0.071% active; AID 540253; note: % of control where 0% means no effect; nearly all actives have a fitted effect of over 45% in size
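Two FRET readings bracket the reaction: one 5 min after compound meets Rango–importin beta, another 45 min after RanGTP-RCC1 (0.6 uM Ran, 0.2 uM RCC1, 2 mM GTP) is added. Only the second defines inhibition.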
Starred values were filed as active, the others as inactive; ? = inconclusive; · = no result given; [ ] = dose if it differs, or a comment. Unless noted, calls come from the whole dose curve. Potency is the fitted concentration of half-maximal effect.

item | mol | ASM inhibitor | gsp antagonist | Rango complex inh | gsp ag | Rango release inh
1 | CCOC(=O)C1=C(N)Oc2ccc3ccccc3c2C1c1cccnc1 (stereo not drawn) | -3.5% | 31.6µM* | 4.5% | 14.0% | 7.3%
2 | CCOC(=O)C1=C(N)Oc2ccc3ccccc3c2C1c1cccc(O)c1 (stereo not drawn) | -21.8% | -10.4% | 0.9% | 0.3% | -20.4%
3 | OC[C@H]1OC(O)C[C@@H](O)[C@@H]1O (stereo partly drawn) | 10.7% | -0.6% | -0.3% | · | -11.8%
4 | Cc1ccnc(NS(=O)(=O)c2ccc(NC(=O)c3cc(=O)c4ccccc4o3)cc2)n1 | 6.9% | 6.2% | 3.1% | ? | 9.7%
5 | CCn1c(SCC(=O)Nc2sccc2C(N)=O)nnc1C1CC1 | -4.6% | 50.1µM* | -0.3% | 5.0% | -9.7%
6 | COc1cc([N+](=O)[O-])ccc1NC(=O)COC(=O)c1n[nH]c2ccccc12 | -9.2% | 39.8µM* | -2.5% | 8.2%[15.4 µM] | -22.6%
7 | CCSc1ccccc1C(=O)Nc1ccc([N+](=O)[O-])cc1OC | -6.0% | 39.8µM* | -3.5% | -6.9% | 11.5%
8 | O=C(COC(=O)c1n[nH]c2ccccc12)Nc1ccc(Cl)cc1[N+](=O)[O-] | -22.6% | -21.1% | 0.1% | -26.7% | ?
9 | CCc1nnc(SCc2ccc([N+](=O)[O-])cc2)nc1CC | -4.2% | 7.1% | -1.6% | 7.7% | 17.5%
10 | CC(c1ccccc1)N(CCC(c1ccccc1)C1CCOC(C)(C)C1)C(=O)c1ccco1 (stereo not drawn) | -9.3% | ? | -0.7% | -20.4% | 1.0%
11 | COc1ccc(CN(CCC(c2ccc(F)cc2)C2CCOC(C)(C)C2)C(=O)c2ccco2)cc1 (stereo not drawn) | -12.1% | 22.4µM* | 5.0% | 2.4%[15.4 µM] | -3.2%
12 | COc1ccc(-c2csc(NC(=O)CSCC(=O)Nc3cc(C)on3)n2)cc1 | -1.4% | -9.5% | -0.5% | -62.5% | 6.2%
13 | CCOC(=O)N1CCN(C(=O)CSCC(=O)Nc2nc(-c3ccc(Cl)s3)cs2)CC1 | -12.1% | 25.1µM* | 4.1% | -28.8% | 1.0%
14 | CCOC(=O)N1CCN(C(=O)CSCC(=O)Nc2nc(-c3ccc(-c4ccccc4)cc3)cs2)CC1 | -12.3% | 25.1µM* | 3.2% | -58.9% | 14.3%
15 | CCOC(=O)N1CCN(C(=O)CSCC(=O)Nc2nc(-c3ccc(OC)cc3)cs2)CC1 | -1.8% | 28.2µM* | 2.5% | -0.5% | -3.0%

Reprinted at random: 3 compounds from above, in no set order.
item | mol | ASM inhibitor | gsp antagonist | Rango complex inh | gsp ag | Rango release inh
2 | CCOC(=O)C1=C(N)Oc2ccc3ccccc3c2C1c1cccc(O)c1 (stereo not drawn) | -21.8% | -10.4% | 0.9% | 0.3% | -20.4%
8 | O=C(COC(=O)c1n[nH]c2ccccc12)Nc1ccc(Cl)cc1[N+](=O)[O-] | -22.6% | -21.1% | 0.1% | -26.7% | ?
12 | COc1ccc(-c2csc(NC(=O)CSCC(=O)Nc3cc(C)on3)n2)cc1 | -1.4% | -9.5% | -0.5% | -62.5% | 6.2%

Following part:
item | mol | ASM inhibitor | gsp antagonist | Rango complex inh | gsp ag | Rango release inh
16 | NC(=O)c1ccc(/C(N)=N/S(=O)(=O)c2cc(C(F)(F)F)cc(C(F)(F)F)c2)cc1 | -1.1% | 7.6% | 0.1% | -4.9%[15.4 µM] | 9.7%
17 | NC(=O)c1ccc(NC(=O)CN2C(=O)NC3(CCCCCCC3)C2=O)cc1 | 2.5% | 7.3% | 2.06µM* | -4.0% | -12.7%
18 | O=C(CN1C(=O)NC2(CCCCC2)C1=O)Nc1ccc(F)cc1 | -3.2% | 4.0% | 0.2% | -31.8% | -0.6%
19 | O=C(O)c1cccc(NC2=C(Cl)C(=O)c3ccccc3C2=O)c1 | -3.7% | 50.1µM* | 0.1% | ? | 18.4%
20 | O=C1C(Cl)=C(Nc2ccccc2)C(=O)c2ccccc21 | 4.4% | -4.8% | -1.0% | -39.9% | -18.6%
21 | O=C(O)c1ccc(NC2=C(Cl)C(=O)c3ccccc3C2=O)cc1 | -1.5% | 28.2µM* | 2.9% | ? | -10.4%
22 | CC(=O)Nc1ccc(Nc2cc(C)nc3c(-c4ccccc4)cnn23)cc1 | 17.3% | ? | -1.9% | 8.0% | -11.9%
23 | COC(=O)C(C)Oc1ccc2c(c1)O/C(=C\c1ccco1)C2=O (stereo not drawn) | 62.8% | -16.3% | ? | -69.8% | 20.6µM*
24 | CCOC(=O)CCc1c(C)nc(-n2[nH]c(C)c(CCO)c2=O)[nH]c1=O | 5.4% | -2.3% | 1.8% | 15.7%[15.4 µM] | -4.6%
25 | Cc1cc(Cl)ccc1OC(C)C(=O)Nc1ccc(C(=O)Nc2ccccc2C(=O)O)cc1 (stereo not drawn) | -0.2% | 31.6µM* | -0.1% | 4.6% | 0.2%
26 | Cc1cc(Cl)ccc1OC(C)C(=O)Nc1ccc(S(=O)(=O)N2CCOCC2)cc1 (stereo not drawn) | -9.3% | -5.1% | 0.5% | 18.3% | 0.5%
27 | O=C(c1ccc(Cl)cc1)N1CCN(c2ccnc3cc(Cl)ccc23)CC1 | -3.5% | 39.8µM* | 0.5% | 11.3%[15.4 µM] | 2.8%
28 | C[C@@H](NC(=O)c1[nH]cnc1C(=O)Nc1cccc(Cl)c1)c1ccccc1 | -0.9% | -7.3% | 3.4% | · | 0.7%
